## scFv variants of Ab-14 (heavy chain) against a SARS-CoV-2 spike peptide

Reference: Engelhart et al. 2022, doi:10.1038/s41597-022-01779-4. File: FLAb, binding data.

Antigen: PDVDLGDISGINAS, a 14-residue peptide of the SARS-CoV-2 spike HR2 region.

Parent scFv Ab-14: VH joined to VL by a 15-residue (Gly4Ser)3 linker. Changes lie in the heavy chain CDRs alone.
VH: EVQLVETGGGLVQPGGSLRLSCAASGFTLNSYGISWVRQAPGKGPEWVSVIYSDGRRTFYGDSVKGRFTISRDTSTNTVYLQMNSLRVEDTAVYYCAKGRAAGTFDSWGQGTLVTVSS
VL: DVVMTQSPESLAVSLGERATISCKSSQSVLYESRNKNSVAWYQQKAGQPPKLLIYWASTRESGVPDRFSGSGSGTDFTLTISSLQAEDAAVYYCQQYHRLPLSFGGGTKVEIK

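The starting antibody came from a phage panning campaign against this peptide. In library AAYL49, one, two or three CDR residues were substituted; doubles and triples were drawn at random. The scFvs were displayed on barcoded MATa yeast, the peptide on MATalpha yeast. Pairs that bind mate more often; barcode pairs of the diploids are counted by sequencing. Read counts were normalised to the haploid input and turned into Kd by a linear fit to BCL2-family pairs of known affinity, for each replicate. Mating was done three times.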

Substitutions are numbered in sequence along the VH above, starting at 1 (not Kabat).
Scale: log10 of Kd in nM, estimated from mating counts; low values are strong binders.
Averages over replicates are reported, and they cover detected replicates only.
"not detected" marks a missing value. The strain was present, yet no cells mated with the target were sequenced in any replicate, which points to weak or no binding.
In this assay the parent's reference entry averaged 0.65; its copy inside this library read 4.11 (one replicate of three).
Three control strains display no target. For library AAYL49, 15% of the pairings with them gave a signal, with a median of 4.06 and one signal in twenty below 2.83, so weak values seen in few replicates may be background. For each scFv, signals with the empty controls are counted beside the result.

changes,"log10 Kd (nM), mean",seen in,empty controls
V50G+I51G+D54W,3.92,2/3,1/9
K65S+R100H+A102N,2.80,1/3,1/9
G55V+R57D+V64W,4.35,2/3,1/9
D54Q+A102S,not detected,0/3,1/9
V50G+S53H+F59W,5.07,2/3,0/9
T58V+K65M+F105N,not detected,0/3,0/9
F27A+R56V+G61M,5.43,1/3,4/9
S31H+R57P+Y60A,not detected,0/3,0/9
T28A+N30H+Y60R,not detected,0/3,0/9
T28S+G33L+S35W,3.26,1/3,2/9
S35W+D54A+R57W,4.42,2/3,2/9
Y32C+Y52H+G55F,3.65,1/3,0/9
S35T+R56L+G99W,not detected,0/3,3/9
Y32R+D62L+S63R,2.82,1/3,0/9
Y52P+G99V+G103Y,not detected,0/3,0/9
L29K+Y60P+R100T,not detected,0/3,0/9
I34R+V64R,not detected,0/3,0/9
G26Q+S31R+A102C,not detected,0/3,0/9
G26F+T28P+G99K,not detected,0/3,0/9
R56D+G61Y+T104R,1.64,1/3,1/9
T28D+L29R+G103W,4.10,2/3,1/9
L29Y+I51G+T58Y,not detected,0/3,0/9
V50F+K65D+T104I,not detected,0/3,1/9
G33I+I34L+S107V,4.68,1/3,3/9
I34T+S53P+Y60P,not detected,0/3,2/9
F59K+K65R,3.16,3/3,4/9
Y32P+I34L+R56C,5.68,1/3,1/9
S31D+F59Q+G61I,-0.26,3/3,1/9
Y32N+I34K+S63A,4.52,1/3,5/9
T58E+D62S,2.56,3/3,1/9
G26F+Y60A+D106Y,not detected,0/3,1/9
Y52S+V64Q+G103V,1.73,3/3,3/9
T28F+Y32D+Y52D,not detected,0/3,0/9
S31R+Y52D+R100V,not detected,0/3,1/9
T28D+K65S+F105V,not detected,0/3,1/9
Y32L+V50L+G103H,3.54,1/3,0/9
N30R+I34R+S63R,not detected,0/3,0/9
I34S+A102Q+G103L,not detected,0/3,0/9
N30E+Y52K+S107P,4.37,2/3,4/9
V50A+R57H+S107W,not detected,0/3,4/9
S53A+S63K,1.27,3/3,4/9
G33R+K65R+S107C,3.88,2/3,0/9
G26P+S35N+R100I,not detected,0/3,2/9
T28P+R57D+D106S,not detected,0/3,0/9
G55P+S63V+R100A,4.17,1/3,2/9
I34Q+S63W+R100C,4.35,3/3,3/9
N30A+G103A+D106H,3.80,2/3,2/9
I51N+D54R+R100Q,not detected,0/3,2/9
V64Y+D106W,2.94,2/3,4/9
T58G+R100L+S107V,4.31,2/3,1/9
Y32D+A102M+T104V,not detected,0/3,0/9
T58P+K65A+G103R,not detected,0/3,1/9
G55A+G61C+R100M,not detected,0/3,4/9
G33A+K65H+A101Y,3.29,1/3,0/9
I34E+Y60R+G61V,5.29,2/3,4/9
V50Q+G103F,not detected,0/3,0/9
N30G+G55S+G99W,not detected,0/3,2/9
L29C+Y32S+G99A,5.30,3/3,5/9
Y52A+R100C+A102C,not detected,0/3,1/9
G99Y+G103K+T104S,0.69,3/3,1/9
F27L+T28Y+D54S,not detected,0/3,0/9
R57E+T104C+S107F,not detected,0/3,1/9
T58L+T104Q+D106K,5.17,1/3,0/9
L29F+I51M+G61Y,not detected,0/3,0/9
G26A+T58E+F105Q,4.03,1/3,1/9
D54L+K65G+G99N,4.59,3/3,4/9
D54R+G55R+F105P,not detected,0/3,1/9
G26R+R56C+G103M,not detected,0/3,0/9
Y52K+R56L+A102P,not detected,0/3,1/9
I51V+D54L+R57S,not detected,0/3,0/9
G26D+L29Q+R100S,not detected,0/3,0/9
Y52W+F59I,4.85,1/3,5/9
N30A+I51Q,not detected,0/3,1/9
L29Y+Y52Q+F105L,4.87,1/3,3/9
N30L+T58L+Y60V,not detected,0/3,0/9

Picked from the list: the 7 lowest averages where every replicate gave a value.

changes,"log10 Kd (nM), mean",seen in,empty controls
S31D+F59Q+G61I,-0.26,3/3,1/9
G99Y+G103K+T104S,0.69,3/3,1/9
S53A+S63K,1.27,3/3,4/9
Y52S+V64Q+G103V,1.73,3/3,3/9
T58E+D62S,2.56,3/3,1/9
F59K+K65R,3.16,3/3,4/9
I34Q+S63W+R100C,4.35,3/3,3/9